For the test, the target named is Neuronal acetylcholine receptor subunit alpha-7 (Rattus norvegicus, UniProt Q05941). The test can be described thus: Binding affinity to rat alpha7 nAchR.

Sequences of proteins named here, by UniProt entry; tags and fusion partners are left off.
UniProt Q05941, whole entry: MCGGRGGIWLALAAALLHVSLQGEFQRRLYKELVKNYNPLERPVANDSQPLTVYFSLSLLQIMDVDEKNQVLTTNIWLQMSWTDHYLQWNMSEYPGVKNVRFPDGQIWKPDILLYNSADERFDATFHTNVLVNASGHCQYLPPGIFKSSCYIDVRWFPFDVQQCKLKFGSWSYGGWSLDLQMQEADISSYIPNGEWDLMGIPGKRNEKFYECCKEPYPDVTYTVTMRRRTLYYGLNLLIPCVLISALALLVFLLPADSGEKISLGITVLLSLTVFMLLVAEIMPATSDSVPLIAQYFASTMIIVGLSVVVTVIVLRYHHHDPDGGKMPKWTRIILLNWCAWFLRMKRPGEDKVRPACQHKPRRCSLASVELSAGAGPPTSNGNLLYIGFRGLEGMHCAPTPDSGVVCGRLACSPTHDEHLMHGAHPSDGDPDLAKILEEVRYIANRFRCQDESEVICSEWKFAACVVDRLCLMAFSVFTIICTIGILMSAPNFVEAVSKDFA

SMILES strings stand for the structures.

Experimental findings from ChEMBL document CHEMBL2151039, “Discovery and development of α7 nicotinic acetylcholine receptor modulators” (J Med Chem, 2011) are described below.

One may read the Ki as the equilibrium dissociation constant of an inhibitor or competing ligand from its target. The low end stands for higher affinity, the high end for lower affinity.

As to `O=C(Oc1ccc(Br)cc1)N1CCN2CCC1CC2` [SSR180711], the Ki worked out at 22 nM. This lies in the double-digit nanomolar range.
